Assay results reported in patent US11648222B2, “Use of CYP26-resistant RAR alpha selective agonists in the treatment of cancer” (Io Therapeutics, Inc., priority 2015, dated 2023).

System: BM stromal cells
Experiment: Effect of soluble factors on CYP26A1 expression in BM stromal cells
Format: cell-based
Conditions: soluble factor added to BM stromal cells
Protocol: qRT-PCR. Total RNA was extracted using the RNeasy Mini Kit (QIAGEN) according to the manufacturer's instructions. cDNA was synthesized by reverse transcription using the iScript cDNA Synthesis Kit (Bio-Rad). qRT-PCR was performed with iTaq SYBR Green Supermix (Bio-Rad) using sequence specific primers. Gene expression was normalized to GAPDH, and relative quantification was calculated using ΔΔCt. All experiments were performed in duplicate and run on the Bio-Rad CFX96 machine.
MM cells produce a variety of soluble factors including cytokines (IL-1, IL-3, IL-6, TNF-α) as well as Hedgehog ligands such as sonic hedgehog (SHH), which could impact the BM stromal compartment. Therefore, it was determined whether any of these factors was responsible for the observed upregulation of CYP26A1 on BM stromal cells. […] Consistent with this, there was a statistically significant correlation between the mRNA levels of SHH in MM cells and activation of stromal Hedgehog signaling as determined by protein patched homolog 1 (PTCH1) expression. […] SHH has a half-life of less than 1 hr, which may explain the reduced effect of MM-conditioned media on stromal CYP26A1 expression compared with that observed in coculture and Transwell experiments.

B1: IL-3: cytokine, soluble factor produced by MM cells (protein, UniProt P08700 20-152, looked up)
Interleukin-3: APMTQTTPLKTSWVNCSNMIDEIITHLKQPPLPLLDFNNLNGEDQDILMENNLRRPNLEAFNRAVKSLQNASAIESILKNLLPCLPLATAAPTRHPIHIKDGDWNEFRRKLTFYLKTLENAQAQQTTLSLAIF
For B1, the “upregulation of CYP26A1 on BM stromal cells” value was “no significant effects”.
